From ChEMBL document CHEMBL1122674, “Aporphines. 58. N-(2-chloroethyl) [8,9-2H]norapomorphine, an irreversible ligand for dopamine receptors: synthesis and application” (J Med Chem, 1984)

By UniProt entry, the sequences of proteins in these tests, tags left out.
UniProt Q9GJU1, whole entry: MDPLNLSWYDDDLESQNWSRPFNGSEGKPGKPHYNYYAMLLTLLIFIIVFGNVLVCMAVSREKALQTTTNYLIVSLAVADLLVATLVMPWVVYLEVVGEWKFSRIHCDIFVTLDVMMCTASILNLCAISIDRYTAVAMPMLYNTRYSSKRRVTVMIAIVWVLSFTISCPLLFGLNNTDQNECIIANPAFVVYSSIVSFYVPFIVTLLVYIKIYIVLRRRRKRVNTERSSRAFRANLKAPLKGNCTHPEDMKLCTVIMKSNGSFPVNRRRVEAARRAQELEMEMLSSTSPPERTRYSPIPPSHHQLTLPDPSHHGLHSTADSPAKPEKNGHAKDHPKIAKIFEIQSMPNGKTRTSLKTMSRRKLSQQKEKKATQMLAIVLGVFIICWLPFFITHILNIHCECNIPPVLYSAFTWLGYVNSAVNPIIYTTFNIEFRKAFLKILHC

Biological target: D(2) dopamine receptor (Canis lupus familiaris, UniProt Q9GJU1)
Assay: The IC50 value was reported as apparent, since [3H]NCA was purported to be irreversible (dopamine receptor from Canine striatal membranes). Result indicates the mean of two separate experiments, each performed in triplicate.

With `CCN1CCCC1CNC(=O)c1cc(S(N)(=O)=O)ccc1OC` (racemic) [SULPIRIDE] as the compound, how does the IC50 read?
The IC50 was 200 nM.
